# Fraction unbound values, as collected for the OPERA models

The unbound fraction in human plasma runs from 0 (all bound) to 1 (all free).

* CCCCOC(=O)c1ccccc1C(=O)OCCCC [Dibutyl phthalate]: plasma fu 0.03231
* CC(c1ccc(O)cc1)(c1ccc(O)cc1)c1ccc(O)cc1: plasma fu 0.0141
* Nc1ccc(Cl)cc1: plasma fu 0.264
* Cc1cccc(C)c1N [2,6-Dimethylaniline]: plasma fu 0.4311
* Nc1cc2c3c(c1)C(c1ccccc1)=N[C@@H](NC(=O)c1cccnc1)C(=O)N3CC2 [Ci-1044]: plasma fu 0.198
* C=CC#N [Acrylonitrile]: plasma fu 0.8632
* C[C@]12CCC(=O)C=C1C=C[C@@H]1[C@@H]2CC[C@@]2(C)[C@H]1CC[C@@]2(O)CCC(=O)O [Canrenoic acid]: plasma fu 0.06
* CN(C)C(=O)Oc1cc(OC(=O)N(C)C)cc(C(O)CNC(C)(C)C)c1 (centres undefined) [Bambuterol]: plasma fu 0.55
* O=P(OCCCl)(OCCCl)OCCCl [Tris(2-chloroethyl) phosphate]: plasma fu 0.44
* CC(C)C[C@H]1C(=O)N2CCC[C@H]2[C@]2(O)O[C@](NC(=O)[C@@H]3C=C4c5cccc6[nH]c(Br)c(c56)C[C@H]4N(C)C3)(C(C)C)C(=O)N12.CS(=O)(=O)O [Bromocriptine mesylate]: plasma fu 0.02459
* CC(=O)O[C@H]1C[C@@H]2CC[C@@H]3[C@H](CC[C@@]4(C)[C@H]3C[C@H]([N+]3(C)CCCCC3)[C@@H]4OC(C)=O)[C@@]2(C)C[C@@H]1[N+]1(C)CCCCC1 [Pancuronium]: plasma fu 0.09
* C/C(=C/C=C/[C@@H](C)C(=O)O)[C@H]1CN[C@H](C(=O)O)[C@H]1CC(=O)O [L-Domoic acid]: plasma fu 0.92
* O=C(O)COc1nc(Cl)c(Cl)cc1Cl [Triclopyr]: plasma fu 0.02173
* O=NN(c1ccccc1)c1ccccc1 [N-Nitrosodiphenylamine]: plasma fu 0.04368
* CCc1cccc(CC)c1N [2,6-Diethylaniline]: plasma fu 0.08962
* O=C(CCl)Nc1ccccc1 [2-chloro-n-phenylacetamide]: plasma fu 0.401
* CN1CC[C@]23CCCC[C@H]2[C@H]1Cc1ccc(O)cc13 [Levorphanol]: plasma fu 0.6
* Cc1cccc([N+](=O)[O-])c1 [3-Nitrotoluene]: plasma fu 0.07728
* Cc1ccc([N+](=O)[O-])cc1 [4-Nitrotoluene]: plasma fu 0.2659
* CN(C)C(=O)Oc1cccc([N+](C)(C)C)c1 [Neostigmine]: plasma fu 0.9317
* CCOC(=O)C1(c2ccccc2)CCN(C)CC1 [Meperidine]: plasma fu 0.42
* O.O.O.[PbH2+2].CC([O-])=O.CC([O-])=O: plasma fu 0.88
* CCOC(=O)[C@H]1[C@@H](OC(=O)c2ccccc2)C[C@@H]2CC[C@H]1N2C [Cocaethylene]: plasma fu 0.64
* CCOP(=S)(OCC)Oc1cc(C)nc(C(C)C)n1 [Diazinon]: plasma fu 0.02065
* CCCOC(=O)Cc1ccc(OCC(=O)N(CC)CC)c(OC)c1 [Propanidid]: plasma fu 0.25
* C[C@]12CCC(=O)C(O)=C1CC[C@@H]1[C@@H]2CC[C@]2(C)C(=O)CC[C@@H]12 [4-Hydroxyandrostenedione]: plasma fu 0.16
* O=P(OC(CCl)CCl)(OC(CCl)CCl)OC(CCl)CCl [Tris(1,3-dichloro-2-propyl) phosphate]: plasma fu 0.01078
* CNC1(c2ccccc2Cl)CCCCC1=O (centres undefined) [Ketamine]: plasma fu 0.6763
* CCOC(=O)[C@]1(c2ccccc2)CCC=C[C@H]1N(C)C [Tilidine]: plasma fu 0.345
* N#CC(CCN1CCC(C(N)=O)(N2CCCCC2)CC1)(c1ccccc1)c1ccccc1 [Piritramide [INN:BAN:DCF]]: plasma fu 0.06083
* ClC1=C(Cl)[C@@]2(Cl)[C@H]3[C@H](Cl)[C@@H]4O[C@@H]4[C@H]3C1(Cl)C2(Cl)Cl [Heptachlor epoxide]: plasma fu 0.01068
* CO/C=C(/C(=O)OC)c1ccccc1Oc1cc(Oc2ccccc2C#N)ncn1 [Azoxystrobin]: plasma fu 0.04827
* CCC1(c2ccccc2)CCC(=O)NC1=O (centres undefined) [Glutethimide]: plasma fu 0.5

Extract of 2 entries:

- CCCCOC(=O)c1ccccc1C(=O)OCCCC [Dibutyl phthalate]: plasma fu 0.03231
- ClC1=C(Cl)[C@@]2(Cl)[C@H]3[C@H](Cl)[C@@H]4O[C@@H]4[C@H]3C1(Cl)C2(Cl)Cl [Heptachlor epoxide]: plasma fu 0.01068

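The numbers are reported measurements, compiled and curated for the OPERA QSAR suite. One number stands for a compound and property, with no spread given. Method, purity and exact conditions of the single measurements are not given. The measured form (salt, isomer or mixture) is not always the one drawn. Unmarked limits or estimates from the upstream databases cannot be ruled out.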

From the experimental data distributed with OPERA 2.9.